From publication PMC9395968, “Pristimerin, a triterpene that inhibits monoacylglycerol lipase activity, prevents the development of paclitaxel-induced allodynia in mice” (Frontiers in Pharmacology, 2022)

Protein sequences, listed by entry. Tags and fused reporters are not part of them.
UniProt Q99685, whole entry: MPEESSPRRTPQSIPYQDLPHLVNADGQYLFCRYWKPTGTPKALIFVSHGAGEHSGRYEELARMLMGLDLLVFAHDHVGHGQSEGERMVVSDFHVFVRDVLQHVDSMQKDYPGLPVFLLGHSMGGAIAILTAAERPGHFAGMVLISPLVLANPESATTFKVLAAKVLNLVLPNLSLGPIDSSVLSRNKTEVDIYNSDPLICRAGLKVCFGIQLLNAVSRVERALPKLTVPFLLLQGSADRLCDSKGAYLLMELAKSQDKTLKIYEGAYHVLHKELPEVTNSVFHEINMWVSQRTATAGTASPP
UniProt O35678, whole entry: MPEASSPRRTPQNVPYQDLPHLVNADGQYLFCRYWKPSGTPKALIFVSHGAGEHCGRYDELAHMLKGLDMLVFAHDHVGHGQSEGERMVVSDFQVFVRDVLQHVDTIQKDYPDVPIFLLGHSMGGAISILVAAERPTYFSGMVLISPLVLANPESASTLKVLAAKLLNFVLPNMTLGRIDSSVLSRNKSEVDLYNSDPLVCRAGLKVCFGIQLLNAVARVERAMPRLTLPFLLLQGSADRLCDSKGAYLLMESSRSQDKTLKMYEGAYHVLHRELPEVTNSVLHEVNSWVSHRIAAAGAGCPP

How the values were obtained:
[1] = molecular target: T1, human recombinant monoacylglycerol lipase (MAGL) (Homo sapiens, UniProt Q99685); assay: colorimetric MAGL inhibitor screening kit (4-nitrophenyl acetate hydrolysis, […] nm); format: biochemical
T1 construct: gene MGLL

[2] = molecular target: T2, mouse monoacylglycerol lipase (MAGL) (Mus musculus, UniProt O35678)
T2 construct: gene Mgll

Structure (SMILES): O=C(Oc1ccc([N+](=O)[O-])cc1)N1CCN(Cc2cccc(Oc3ccccc3)c2)CC1 [JZL195]
- IC50 [1]: 114 nM
- IC50 [2]: 869 nM
